What was measured:
[1] = target: 72 kDa type IV collagenase (Homo sapiens, UniProt P08253); assay: Assay for Inhibition of MMP
Interstitial collagenase = target: T1, Interstitial collagenase (Homo sapiens, UniProt P03956); assay: Assay for Inhibition of MMP
T1 sequence (P03956 whole entry): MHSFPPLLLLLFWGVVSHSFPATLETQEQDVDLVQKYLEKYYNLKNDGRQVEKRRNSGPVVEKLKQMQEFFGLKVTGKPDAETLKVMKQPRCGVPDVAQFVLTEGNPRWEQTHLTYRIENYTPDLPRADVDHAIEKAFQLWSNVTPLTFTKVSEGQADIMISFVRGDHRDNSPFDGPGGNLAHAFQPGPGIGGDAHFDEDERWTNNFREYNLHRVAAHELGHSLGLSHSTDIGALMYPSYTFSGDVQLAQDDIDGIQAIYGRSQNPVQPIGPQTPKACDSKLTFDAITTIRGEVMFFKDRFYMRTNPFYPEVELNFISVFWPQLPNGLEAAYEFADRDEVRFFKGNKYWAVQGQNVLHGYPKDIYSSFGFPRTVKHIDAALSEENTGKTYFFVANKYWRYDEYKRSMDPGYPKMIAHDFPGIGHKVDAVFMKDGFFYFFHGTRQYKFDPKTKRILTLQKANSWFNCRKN

By UniProt entry, the sequences of proteins in these tests, tags left out. Where a name states a change or a piece, a line headed by the entry shows the natural chain unless it says otherwise.
UniProt P08253: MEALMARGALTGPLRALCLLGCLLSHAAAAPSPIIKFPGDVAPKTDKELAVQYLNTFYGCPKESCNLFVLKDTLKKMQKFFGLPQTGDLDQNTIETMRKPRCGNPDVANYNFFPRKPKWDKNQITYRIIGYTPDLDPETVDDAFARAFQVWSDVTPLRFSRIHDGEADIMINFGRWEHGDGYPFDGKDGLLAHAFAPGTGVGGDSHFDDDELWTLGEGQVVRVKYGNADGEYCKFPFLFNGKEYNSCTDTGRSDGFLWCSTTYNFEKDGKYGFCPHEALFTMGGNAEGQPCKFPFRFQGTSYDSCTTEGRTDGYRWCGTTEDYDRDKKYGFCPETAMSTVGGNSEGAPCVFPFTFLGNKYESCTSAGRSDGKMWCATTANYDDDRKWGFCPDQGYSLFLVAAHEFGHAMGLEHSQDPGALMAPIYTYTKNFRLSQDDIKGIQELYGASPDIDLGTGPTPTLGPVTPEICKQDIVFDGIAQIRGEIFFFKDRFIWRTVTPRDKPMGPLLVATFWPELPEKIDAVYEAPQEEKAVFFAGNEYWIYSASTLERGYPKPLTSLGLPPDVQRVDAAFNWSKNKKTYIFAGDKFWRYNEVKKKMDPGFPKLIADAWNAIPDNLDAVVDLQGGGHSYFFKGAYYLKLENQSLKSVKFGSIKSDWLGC

IC50 [1]: 0.24 nM
IC50 (Interstitial collagenase): 860 nM
SMILES: C#CCN1CCC(C(=O)NOC2CCCCO2)(S(=O)(=O)c2ccc(Oc3ccc(OC(F)(F)F)cc3)cc2)CC1 (configuration not stated) [US20240050571, Compound 9]

— BindingDB's records for patent US20240050571 (Loyola University Of Chicago, 2024)
